Structures can show the parent of a compound that is named as a salt.
Target: Abl kinase (Homo sapiens, UniProt P00519)
Assay: biochemical
Details: Abl IC50 (nM), Abl kinase (Invitrogen, 20 ng/well), Abltide 100 μM, ATP 500 nM, 37° C. for 60 minutes, top concentration 10 uM

The chains behind the UniProt entries cited, without tags or fusion partners.
UniProt P00519, whole entry: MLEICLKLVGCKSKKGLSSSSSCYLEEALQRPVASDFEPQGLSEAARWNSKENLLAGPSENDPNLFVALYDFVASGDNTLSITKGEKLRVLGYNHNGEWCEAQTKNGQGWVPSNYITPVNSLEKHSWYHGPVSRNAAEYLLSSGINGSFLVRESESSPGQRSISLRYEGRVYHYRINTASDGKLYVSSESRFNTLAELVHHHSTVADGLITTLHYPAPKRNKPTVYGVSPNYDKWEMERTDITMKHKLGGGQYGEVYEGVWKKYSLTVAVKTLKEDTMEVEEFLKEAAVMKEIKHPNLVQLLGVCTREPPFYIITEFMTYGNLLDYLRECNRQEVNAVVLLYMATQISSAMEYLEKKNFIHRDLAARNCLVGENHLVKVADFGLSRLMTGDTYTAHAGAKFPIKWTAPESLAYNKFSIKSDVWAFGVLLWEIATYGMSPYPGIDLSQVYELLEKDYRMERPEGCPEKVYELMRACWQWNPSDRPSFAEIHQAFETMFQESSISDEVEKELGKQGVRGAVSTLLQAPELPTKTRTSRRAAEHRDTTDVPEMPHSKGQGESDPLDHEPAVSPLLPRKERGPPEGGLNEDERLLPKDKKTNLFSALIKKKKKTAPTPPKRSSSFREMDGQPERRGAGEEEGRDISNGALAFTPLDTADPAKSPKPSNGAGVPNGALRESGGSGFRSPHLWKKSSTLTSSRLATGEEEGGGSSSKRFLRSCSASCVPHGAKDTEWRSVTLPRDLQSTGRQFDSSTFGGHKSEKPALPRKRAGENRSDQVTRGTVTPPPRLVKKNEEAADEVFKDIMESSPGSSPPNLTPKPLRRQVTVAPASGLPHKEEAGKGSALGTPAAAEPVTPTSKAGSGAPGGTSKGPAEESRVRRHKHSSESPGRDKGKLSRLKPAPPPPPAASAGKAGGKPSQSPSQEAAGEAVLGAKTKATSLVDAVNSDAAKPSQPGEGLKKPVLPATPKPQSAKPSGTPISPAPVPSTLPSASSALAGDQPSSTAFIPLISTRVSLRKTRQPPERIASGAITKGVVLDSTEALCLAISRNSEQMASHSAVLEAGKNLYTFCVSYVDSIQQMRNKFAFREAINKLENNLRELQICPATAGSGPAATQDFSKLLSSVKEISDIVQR

Work on `O=S(=O)(c1ccc(Nc2ncc(/C=C/c3cccc(CO)c3)cn2)cc1)C1CCNCC1` [(3-((E)-2-(2-(4-(piperidin-4-ylsulfonyl)phenylamino)pyrimidin-5-yl)vinyl)phenyl)methanol hydrochloride] yielded an IC50 of 73 nM.
